# Assay results: patent US10508115B2, “Toll-like receptor 7 (TLR7) agonists having heteroatom-linked aromatic moieties, conjugates thereof, and methods and uses therefor” (BRISTOL-MYERS SQUIBB COMPANY, priority 2017, dated 2019)
# Sequences of proteins named here, by UniProt entry; tags and fusion partners are left off. Residues count along the entry.
# UniProt Q9NYK1, 27-1049 limits assumed: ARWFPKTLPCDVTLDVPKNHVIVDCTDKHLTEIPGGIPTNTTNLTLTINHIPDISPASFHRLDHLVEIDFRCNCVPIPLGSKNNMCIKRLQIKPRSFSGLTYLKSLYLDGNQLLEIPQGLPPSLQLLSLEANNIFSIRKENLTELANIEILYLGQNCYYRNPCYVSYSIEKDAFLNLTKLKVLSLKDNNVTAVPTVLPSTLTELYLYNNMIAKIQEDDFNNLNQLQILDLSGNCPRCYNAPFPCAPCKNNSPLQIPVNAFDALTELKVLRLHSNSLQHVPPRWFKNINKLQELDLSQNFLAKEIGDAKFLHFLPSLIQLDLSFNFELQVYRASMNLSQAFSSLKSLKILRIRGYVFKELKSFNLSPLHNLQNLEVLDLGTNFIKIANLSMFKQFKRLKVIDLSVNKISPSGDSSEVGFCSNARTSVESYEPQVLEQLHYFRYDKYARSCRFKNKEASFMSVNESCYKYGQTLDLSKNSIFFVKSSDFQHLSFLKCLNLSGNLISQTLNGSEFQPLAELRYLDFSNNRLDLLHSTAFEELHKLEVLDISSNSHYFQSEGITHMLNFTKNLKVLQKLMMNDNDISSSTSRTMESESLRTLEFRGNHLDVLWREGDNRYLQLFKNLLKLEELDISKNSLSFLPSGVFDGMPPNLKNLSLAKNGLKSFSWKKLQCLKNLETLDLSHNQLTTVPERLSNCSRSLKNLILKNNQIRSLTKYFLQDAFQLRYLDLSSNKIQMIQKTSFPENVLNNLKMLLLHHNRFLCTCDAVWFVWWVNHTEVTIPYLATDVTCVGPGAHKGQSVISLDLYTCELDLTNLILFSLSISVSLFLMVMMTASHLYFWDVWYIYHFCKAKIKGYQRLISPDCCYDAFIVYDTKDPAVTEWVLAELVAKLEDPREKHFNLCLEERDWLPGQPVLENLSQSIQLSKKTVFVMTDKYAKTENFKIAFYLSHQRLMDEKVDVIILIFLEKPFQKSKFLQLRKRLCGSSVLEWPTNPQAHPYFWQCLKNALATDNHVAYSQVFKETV
# Assays:
# interleukin 6 (IL-6) = assay: Interleukin 6 induction assay in human whole blood; conditions: read-out: IL6 Induction (EC50), 37° C. for 20 h, AlphaLISA
# human TLR7 = human TLR7 (Homo sapiens (Human), UniProt Q9NYK1); assay: HEK-Blue TLR7 reporter assay (TLR7 agonist activity); format: cell-based; conditions: read-out: TLR7 Agonism (EC50); HEK-Blue TLR7 cells, SEAP reporter, 18 h treatment
EC50 (interleukin 6 (IL-6)) [nM],EC50 (human TLR7) [nM],SMILES
20.7,,CCCCOc1nc(N)c2nc(O)n(Cc3ccc(Oc4cccc(CNC5CCOCC5)n4)cc3)c2n1
232,8.02,CCCCOc1nc(N)c2nc(O)n(Cc3ccc(Oc4cccc(CN5CCNCC5)n4)cc3)c2n1
